Amino acid sequences for entries named in this document (tags omitted).
UniProt P08183, whole entry: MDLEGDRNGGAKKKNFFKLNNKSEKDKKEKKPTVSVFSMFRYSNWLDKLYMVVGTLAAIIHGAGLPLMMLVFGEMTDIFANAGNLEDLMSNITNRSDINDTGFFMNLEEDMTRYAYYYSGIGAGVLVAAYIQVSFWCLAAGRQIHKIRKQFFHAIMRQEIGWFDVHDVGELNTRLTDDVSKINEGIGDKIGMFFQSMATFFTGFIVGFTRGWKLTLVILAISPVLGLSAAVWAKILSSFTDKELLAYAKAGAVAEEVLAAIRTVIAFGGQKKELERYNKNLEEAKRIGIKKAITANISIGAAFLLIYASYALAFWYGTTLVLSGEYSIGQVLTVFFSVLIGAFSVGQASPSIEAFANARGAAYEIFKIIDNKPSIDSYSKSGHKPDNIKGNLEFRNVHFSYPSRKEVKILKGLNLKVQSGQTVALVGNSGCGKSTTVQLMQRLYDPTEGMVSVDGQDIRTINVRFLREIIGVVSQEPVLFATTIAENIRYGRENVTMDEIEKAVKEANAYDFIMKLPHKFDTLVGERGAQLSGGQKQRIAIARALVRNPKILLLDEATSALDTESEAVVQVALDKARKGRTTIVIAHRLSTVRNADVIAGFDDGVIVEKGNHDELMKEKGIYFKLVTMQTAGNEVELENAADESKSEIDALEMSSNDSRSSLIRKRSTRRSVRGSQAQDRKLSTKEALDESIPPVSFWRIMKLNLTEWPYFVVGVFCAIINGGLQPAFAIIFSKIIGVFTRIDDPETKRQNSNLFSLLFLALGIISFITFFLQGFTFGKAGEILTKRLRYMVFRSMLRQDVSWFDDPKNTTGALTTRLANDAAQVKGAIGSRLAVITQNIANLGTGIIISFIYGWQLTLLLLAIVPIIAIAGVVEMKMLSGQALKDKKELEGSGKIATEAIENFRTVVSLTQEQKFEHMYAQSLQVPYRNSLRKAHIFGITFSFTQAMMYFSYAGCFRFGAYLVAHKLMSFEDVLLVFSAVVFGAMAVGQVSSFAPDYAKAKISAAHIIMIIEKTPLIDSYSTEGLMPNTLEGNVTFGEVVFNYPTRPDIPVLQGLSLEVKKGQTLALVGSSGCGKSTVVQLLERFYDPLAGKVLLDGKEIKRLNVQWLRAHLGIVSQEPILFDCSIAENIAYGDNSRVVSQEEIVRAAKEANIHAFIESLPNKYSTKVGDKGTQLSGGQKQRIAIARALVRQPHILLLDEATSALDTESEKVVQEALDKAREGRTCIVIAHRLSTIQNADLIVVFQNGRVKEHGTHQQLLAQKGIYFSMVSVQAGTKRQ
UniProt P08684, whole entry: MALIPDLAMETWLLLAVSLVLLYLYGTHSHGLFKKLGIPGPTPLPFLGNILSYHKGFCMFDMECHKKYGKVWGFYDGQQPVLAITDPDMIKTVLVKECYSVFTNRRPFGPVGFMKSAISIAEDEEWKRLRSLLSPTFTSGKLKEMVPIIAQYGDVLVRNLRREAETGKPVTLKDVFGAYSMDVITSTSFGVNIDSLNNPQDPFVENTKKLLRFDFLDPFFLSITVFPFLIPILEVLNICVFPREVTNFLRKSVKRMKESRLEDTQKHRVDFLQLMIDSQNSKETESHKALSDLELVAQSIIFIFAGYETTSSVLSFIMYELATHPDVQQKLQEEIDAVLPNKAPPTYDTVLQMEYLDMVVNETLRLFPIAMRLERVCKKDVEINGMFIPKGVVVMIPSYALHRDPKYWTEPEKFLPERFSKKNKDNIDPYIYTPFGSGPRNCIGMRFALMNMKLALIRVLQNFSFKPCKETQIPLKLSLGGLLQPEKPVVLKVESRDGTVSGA

In patent US20220106301A1, “ACETAMIDO-PHENYLBENZAMIDE DERIVATIVES AND METHODS OF USING THE SAME” (Athenex, Inc., priority 2020, published 2022):

Legend:
P-glycoprotein = P-glycoprotein (Homo sapiens, UniProt P08183)
CYP3A4 = CYP3A4 (Homo sapiens, UniProt P08684)

## COc1cc(NC(=O)c2cc(=O)c3ccccc3o2)c(C(=O)Nc2ccc(CC[N+]([O-])(Cc3ccc4c(cnn4C)c3)Cc3ccc[n+]([O-])c3)cc2)cc1OC (centres unmarked)
P-glycoprotein
  EC50: < 100 nM
CYP3A4
  IC50: > 1000 nM
